Some results for these compounds are left out of this collection, so the calls shown say nothing about other tests.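 A five-concentration, 48-hour dose response in 96-well plates underlies each endpoint, interpolated linearly between surrounding concentrations. Abbreviation: GI50, concentration required for 50% inhibition of growth.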
Legend:
Experiment in all cases: DTP human tumour cell line panel, 48 h; in the data active = GI50 below about 0.43 µM; inactive = the rest
NCI-H460 lung = tested on: NCI-H460 lung
RPMI-8226 leukemia = tested on: RPMI-8226 leukemia
SN12C renal = tested on: SN12C renal
LOX IMVI melanoma = tested on: LOX IMVI melanoma
KM12 colon = tested on: KM12 colon
HCT-116 colon = tested on: HCT-116 colon
MALME-3M melanoma = tested on: MALME-3M melanoma
IGROV1 ovarian = tested on: IGROV1 ovarian
HOP-92 NSCLC = tested on: HOP-92 NSCLC
SF-539 CNS = tested on: SF-539 CNS
MDA-MB-435 = tested on: MDA-MB-435
HCT-15 colon = tested on: HCT-15 colon
OVCAR-3 ovarian = tested on: OVCAR-3 ovarian
M14 melanoma = tested on: M14 melanoma
OVCAR-8 ovarian = tested on: OVCAR-8 ovarian
SK-OV-3 ovarian = tested on: SK-OV-3 ovarian
HS 578T breast = tested on: HS 578T breast
SF-295 CNS = tested on: SF-295 CNS
HT29 colon = tested on: HT29 colon
NCI-H226 lung = tested on: NCI-H226 lung
EKVX NSCLC = tested on: EKVX NSCLC
786-0 renal = tested on: 786-0 renal
SR leukemia = tested on: SR leukemia
ACHN renal = tested on: ACHN renal
MOLT-4 leukemia = tested on: MOLT-4 leukemia
SK-MEL-5 melanoma = tested on: SK-MEL-5 melanoma
NCI-H23 lung = tested on: NCI-H23 lung
HL-60(TB) leukemia = tested on: HL-60(TB) leukemia
BT-549 breast = tested on: BT-549 breast
SNB-19 CNS = tested on: SNB-19 CNS
TK-10 renal = tested on: TK-10 renal
UACC-62 melanoma = tested on: UACC-62 melanoma
K-562 leukemia = tested on: K-562 leukemia
DU-145 prostate = tested on: DU-145 prostate
SW-620 colon = tested on: SW-620 colon
CCRF-CEM leukemia = tested on: CCRF-CEM leukemia
UACC-257 melanoma = tested on: UACC-257 melanoma
MDA-MB-231 breast = tested on: MDA-MB-231 breast
PC-3 prostate = tested on: PC-3 prostate
OVCAR-4 ovarian = tested on: OVCAR-4 ovarian
COLO 205 colon = tested on: COLO 205 colon
SK-MEL-2 melanoma = tested on: SK-MEL-2 melanoma
T-47D breast = tested on: T-47D breast
SF-268 CNS = tested on: SF-268 CNS
CAKI-1 renal = tested on: CAKI-1 renal
A549 NSCLC = tested on: A549 NSCLC
UO-31 renal = tested on: UO-31 renal
NCI-H522 lung = tested on: NCI-H522 lung
HCC-2998 colon = tested on: HCC-2998 colon
MCF7 breast = tested on: MCF7 breast
SK-MEL-28 melanoma = tested on: SK-MEL-28 melanoma
U251 CNS = tested on: U251 CNS
A498 renal = tested on: A498 renal
SNB-75 CNS = tested on: SNB-75 CNS
NCI/ADR-RES ovarian = tested on: NCI/ADR-RES ovarian
OVCAR-5 ovarian = tested on: OVCAR-5 ovarian
HOP-62 NSCLC = tested on: HOP-62 NSCLC
MDA-N = tested on: MDA-N
RXF 393 renal = tested on: RXF 393 renal

Measured: GI50

CCC#CC(O)(C(=O)OC1CC2CCC(C1)N2C)c1ccccc1 (centres undefined)
inactive: NCI-H460 lung > 100 µM | RPMI-8226 leukemia > 100 µM | SN12C renal > 100 µM | LOX IMVI melanoma > 100 µM | KM12 colon > 100 µM | HCT-116 colon > 100 µM | MALME-3M melanoma > 100 µM | IGROV1 ovarian > 100 µM | HOP-92 NSCLC > 100 µM | SF-539 CNS > 100 µM | MDA-MB-435 = > 100 µM | HCT-15 colon > 100 µM | OVCAR-3 ovarian > 100 µM | M14 melanoma > 100 µM | OVCAR-8 ovarian > 100 µM | SK-OV-3 ovarian > 100 µM | HS 578T breast 43.3 µM | SF-295 CNS > 100 µM | HT29 colon > 100 µM | NCI-H226 lung > 100 µM | EKVX NSCLC > 100 µM | 786-0 renal > 100 µM | SR leukemia > 100 µM | ACHN renal > 100 µM | MOLT-4 leukemia > 100 µM | SK-MEL-5 melanoma > 100 µM | NCI-H23 lung > 100 µM | HL-60(TB) leukemia > 100 µM | BT-549 breast > 100 µM | SNB-19 CNS > 100 µM | TK-10 renal > 100 µM | UACC-62 melanoma > 100 µM | K-562 leukemia > 100 µM | DU-145 prostate > 100 µM | SW-620 colon > 100 µM | CCRF-CEM leukemia > 100 µM | UACC-257 melanoma > 100 µM | MDA-MB-231 breast > 100 µM | PC-3 prostate > 100 µM | OVCAR-4 ovarian > 100 µM | COLO 205 colon > 100 µM | SK-MEL-2 melanoma > 100 µM | T-47D breast > 100 µM | SF-268 CNS > 100 µM | CAKI-1 renal > 100 µM | A549 NSCLC > 100 µM | UO-31 renal > 100 µM | NCI-H522 lung > 100 µM | HCC-2998 colon > 100 µM | MCF7 breast > 100 µM | SK-MEL-28 melanoma > 100 µM | U251 CNS > 100 µM | A498 renal > 100 µM | SNB-75 CNS > 100 µM | NCI/ADR-RES ovarian > 100 µM | OVCAR-5 ovarian > 100 µM | HOP-62 NSCLC > 100 µM | MDA-N > 100 µM | RXF 393 renal > 100 µM

Reference: PubChem BioAssay (NCI)
